From ChEMBL document CHEMBL4431391, “Exploration of substituted arylpiperazine-tetrazoles as promising dual norepinephrine and dopamine reuptake inhibitors” (Bioorg Med Chem, 2016)

Protein sequences, listed by entry. Tags and fused reporters are not part of them.
UniProt P23975, whole entry: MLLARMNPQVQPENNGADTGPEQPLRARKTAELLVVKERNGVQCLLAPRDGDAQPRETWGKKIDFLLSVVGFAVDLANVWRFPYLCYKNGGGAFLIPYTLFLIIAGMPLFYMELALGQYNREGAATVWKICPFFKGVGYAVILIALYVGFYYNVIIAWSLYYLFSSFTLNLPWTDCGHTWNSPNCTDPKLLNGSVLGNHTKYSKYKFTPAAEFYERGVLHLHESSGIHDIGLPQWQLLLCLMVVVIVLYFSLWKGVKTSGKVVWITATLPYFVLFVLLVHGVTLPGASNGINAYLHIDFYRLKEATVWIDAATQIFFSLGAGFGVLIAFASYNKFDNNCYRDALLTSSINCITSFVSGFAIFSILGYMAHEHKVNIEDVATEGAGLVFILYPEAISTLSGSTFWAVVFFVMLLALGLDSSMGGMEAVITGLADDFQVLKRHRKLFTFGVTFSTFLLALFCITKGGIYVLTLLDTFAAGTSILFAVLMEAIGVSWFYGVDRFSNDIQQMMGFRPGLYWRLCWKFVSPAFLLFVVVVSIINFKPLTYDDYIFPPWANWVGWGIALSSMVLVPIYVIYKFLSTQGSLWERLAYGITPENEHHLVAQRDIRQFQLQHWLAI

Target: Sodium-dependent noradrenaline transporter (Homo sapiens, UniProt P23975)
Test: Inhibition of [3H]-5-norepinephrine reuptake in human NET expressed in HEK293 cells by liquid scintillation counting method
Type: cell-based
Summary of the method: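 HEK-293 cells grown in FBS-supplemented medium, transfected with human transporter (hDAT or hNET). Uptake of radiolabeled substrate ([3H]-DA for DAT, [3H]-NE for NET) at 20 nM was measured, with inhibition assessed as reduced uptake. Method adapted with slight modification from a literature procedure.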

`CC(NC(C)(C)C)C(=O)c1cccc(Cl)c1` (stereo unspecified) [BUPROPION] was tested. Which IC50 did it give?
Its IC50 is 3.24 µM.
